Laboratory results as given in ChEMBL document CHEMBL1134466 (J Med Chem, 2001).

How the values were obtained:
Mus musculus [1] = assay: Half life period after (ip) administration of 50 mg/kg in B6D2F1 mice; conditions: in vivo
Mus musculus [2] = assay: Toxicity in female B6D2F1 mice measured as BUN when given 0 mg/kg daily * 5 (ip); conditions: in vivo
Mus musculus [3] = assay: Toxicity in female B6D2F1 mice measured as BUN when given 1.6 mg/kg daily * 5 (ip); conditions: in vivo
Mus musculus [4] = assay: Toxicity in female B6D2F1 mice measured as BUN when given 16 mg/kg daily * 5 (ip); conditions: in vivo
Mus musculus [5] = assay: Toxicity in female B6D2F1 mice measured as BUN when given 8 mg/kg daily * 5 (ip); conditions: in vivo
Mus musculus [6] = assay: Toxicity in female B6D2F1 mice measured as alanine aminotransferase when given 0 mg/kg daily * 5 (ip); conditions: in vivo
Mus musculus [7] = assay: Toxicity in female B6D2F1 mice measured as alanine aminotransferase when given 1.6 mg/kg daily * 5 (ip); conditions: in vivo
Mus musculus [8] = assay: Toxicity in female B6D2F1 mice measured as alanine aminotransferase when given 16 mg/kg daily * 5 (ip); conditions: in vivo
Mus musculus [9] = assay: Toxicity in female B6D2F1 mice measured as alanine aminotransferase when given 8 mg/kg daily * 5 (ip); conditions: in vivo
Mus musculus [10] = assay: Toxicity to bone marrow granulocyte/macrophage progenitors per femur at a dose of 100 mg/kg (ip); conditions: in vivo
Mus musculus [11] = assay: Toxicity to bone marrow granulocyte/macrophage progenitors per femur at a dose of 150 mg/kg (ip); conditions: in vivo
Mus musculus [12] = assay: Toxicity to bone marrow granulocyte/macrophage progenitors per femur at a dose of 200 mg/kg (ip); conditions: in vivo
Mus musculus [13] = assay: Antitumor activity in MX-1 Xenograft Model at a dose of 16 mg/kg (ip) measured as percent growth inhibition
Mus musculus [14] = assay: Antitumor activity in MX-1 Xenograft Model at a dose of 8 mg/kg (ip) measured as percent growth inhibition
Mus musculus [15] = assay: Antitumor activity in MX-1 Xenograft Model at a dose of 40 mg/kg (po) measured as percent growth inhibition
Mus musculus [16] = assay: Toxicity in female B6D2F1 mice measured as RBC count when given 8 mg/kg daily * 5 (ip); conditions: in vivo
Mus musculus [17] = assay: Toxicity in female B6D2F1 mice measured as RBC count when given 0 mg/kg daily * 5 (ip); conditions: in vivo
Mus musculus [18] = assay: Toxicity in female B6D2F1 mice measured as RBC count when given 1.6 mg/kg daily * 5 (ip); conditions: in vivo
Mus musculus [19] = assay: Antitumor activity against B16 murine melanoma at a dose of 16 mg/kg (ip) measured as 60-day survivors (% LTS)
Mus musculus [20] = assay: Antitumor activity against B16 murine melanoma at a dose of 8 mg/kg (ip) measured as 60-day survivors (% LTS)
Mus musculus [21] = assay: Toxicity in female B6D2F1 mice measured as spleen wt when given 16 mg/kg daily * 5 (ip); conditions: in vivo
Mus musculus [22] = assay: Toxicity in female B6D2F1 mice measured as spleen wt when given 8 mg/kg daily * 5 (ip); conditions: in vivo
Mus musculus [23] = assay: Toxicity in female B6D2F1 mice measured as thymus wt when given 0 mg/kg daily * 5 (ip); conditions: in vivo
Mus musculus [24] = assay: Toxicity in female B6D2F1 mice measured as thymus wt when given 1.6 mg/kg daily * 5 (ip); conditions: in vivo
Mus musculus [25] = assay: Toxicity in female B6D2F1 mice measured as thymus wt when given 16 mg/kg daily * 5 (ip); conditions: in vivo
Mus musculus [26] = assay: Toxicity in female B6D2F1 mice measured as thymus wt when given 8 mg/kg daily * 5 (ip); conditions: in vivo
Mus musculus [27] = assay: Antitumor activity against B16 murine melanoma at a dose of 16 mg/kg (ip) measured as percent weight change on day 8
Mus musculus [28] = assay: Antitumor activity against B16 murine melanoma at a dose of 16 mg/kg (ip) measured as increased life span (% T/C)
Mus musculus [29] = assay: Antitumor activity against B16 murine melanoma at a dose of 8 mg/kg (ip) measured as increased life span (% T/C)
Mus musculus [30] = assay: Toxicity in female B6D2F1 mice measured as platelet count when given 0 mg/kg daily * 5 (ip); conditions: in vivo
Mus musculus [31] = assay: Toxicity in female B6D2F1 mice measured as platelet count when given 1.6 mg/kg daily * 5 (ip); conditions: in vivo
Mus musculus [32] = assay: Antitumor activity in MX-1 Xenograft Model at a dose of 40 mg/kg (po) measured as percent weight change on day 8
Mus musculus [33] = assay: Antitumor activity in MX-1 Xenograft Model at a dose of 8 mg/kg (ip) measured as percent weight change on day 8
Mus musculus [34] = assay: Antitumor activity in MX-1 Xenograft Model at a dose of 16 mg/kg (ip) measured as number of mice with partial tumor regression
Mus musculus [35] = assay: Antitumor activity in MX-1 Xenograft Model at a dose of 40 mg/kg (po) measured as number of mice with partial tumor regression
Mus musculus [36] = assay: Antitumor activity in MX-1 Xenograft Model at a dose of 8 mg/kg (ip) measured as number of mice with partial tumor regression
Mus musculus [37] = assay: Toxicity in female B6D2F1 mice measured as alkaline phosphatase when given 1.6 mg/kg daily * 5 (ip); conditions: in vivo
Mus musculus [38] = assay: Toxicity in female B6D2F1 mice measured as alkaline phosphatase when given 16 mg/kg daily * 5 (ip); conditions: in vivo
Mus musculus [39] = assay: Toxicity in female B6D2F1 mice measured as spleen wt when given 1.6 mg/kg daily * 5 (ip); conditions: in vivo
Mus musculus [40] = assay: Antitumor activity in MX-1 Xenograft Model at a dose of 8 mg/kg (ip) measured as number of mice with complete tumor regression
Mus musculus [41] = assay: Toxicity in female B6D2F1 mice measured as alkaline phosphatase when given 0 mg/kg daily * 5 (ip); conditions: in vivo
Mus musculus [42] = assay: Toxicity in female B6D2F1 mice measured as spleen wt when given 0 mg/kg daily * 5 (ip); conditions: in vivo
Mus musculus [43] = assay: Antitumor activity in MX-1 Xenograft Model at a dose of 16 mg/kg (ip) measured as number of mice with complete tumor regression
Mus musculus [44] = assay: Antitumor activity in MX-1 Xenograft Model at a dose of 40 mg/kg (po) measured as number of mice with complete tumor regression
Mus musculus [45] = assay: Toxicity in female B6D2F1 mice measured as platelet count when given 16 mg/kg daily * 5 (ip); conditions: in vivo
Mus musculus [46] = assay: Toxicity in female B6D2F1 mice measured as platelet count when given 8 mg/kg daily * 5 (ip); conditions: in vivo
Mus musculus [47] = assay: Toxicity in female B6D2F1 mice measured as alkaline phosphatase when given 8 mg/kg daily * 5 (ip); conditions: in vivo
Mus musculus [48] = assay: Toxicity in female B6D2F1 mice measured as WBC count when given 0 mg/kg daily * 5 (ip); conditions: in vivo
Mus musculus [49] = assay: Toxicity in female B6D2F1 mice measured as WBC count when given 1.6 mg/kg daily * 5 (ip); conditions: in vivo
Mus musculus [50] = assay: Toxicity in female B6D2F1 mice measured as WBC count when given 16 mg/kg daily * 5 (ip); conditions: in vivo
Mus musculus [51] = assay: Toxicity in female B6D2F1 mice measured as WBC count when given 8 mg/kg daily * 5 (ip); conditions: in vivo
Mus musculus [52] = assay: Antitumor activity in MX-1 Xenograft Model at a dose of 16 mg/kg (ip) measured as percent weight change on day 8
Mus musculus [53] = assay: Toxicity in female B6D2F1 mice measured as RBC count when given 16 mg/kg daily * 5 (ip); conditions: in vivo

Compound: NP(=O)(OCc1ccc([N+](=O)[O-])o1)N(CCBr)CCBr (stereo not drawn)
- T1/2 (Mus musculus [1]): 11.6 min
- BUN (Mus musculus [2]): 30.6 mg/dL
- BUN (Mus musculus [3]): 20 mg/dL
- BUN (Mus musculus [4]): 23 mg/dL
- BUN (Mus musculus [5]): 23.6 mg/dL
- ALT. (Mus musculus [6]): 40 U l-1
- ALT. (Mus musculus [7]): 43 U l-1
- ALT. (Mus musculus [8]): 45 U l-1
- ALT. (Mus musculus [9]): 37 U l-1
- Control (Mus musculus [10]): 79%
- Control (Mus musculus [11]): 52%
- Control (Mus musculus [12]): 28%
- growth inhibition (GI) (Mus musculus [13]): > 99%
- growth inhibition (GI) (Mus musculus [14]): 93%
- growth inhibition (GI) (Mus musculus [15]): 98%
- RBC x 10e 3 (Mus musculus [16]): 7.9 µL⁻¹
- RBC x 10e 3 (Mus musculus [17]): 8.5 µL⁻¹
- RBC x 10e 3 (Mus musculus [18]): 8.7 µL⁻¹
- LTS (Mus musculus [19]): 40%
- LTS (Mus musculus [20]): 0%
- Weight (Mus musculus [21]): 45 mg
- Weight (Mus musculus [22]): 48 mg
- Weight (Mus musculus [23]): 41 mg
- Weight (Mus musculus [24]): 57 mg
- Weight (Mus musculus [25]): 17 mg
- Weight (Mus musculus [26]): 33 mg
- Weight change (Mus musculus [27]): 19%
- T/C (Mus musculus [28]): 228%
- T/C (Mus musculus [29]): 199%
- Platelets x10e-3 (Mus musculus [30]): 846 µL⁻¹
- Platelets x10e-3 (Mus musculus [31]): 970 µL⁻¹
- Weight change (Mus musculus [32]): 3%
- Weight change (Mus musculus [33]): 0%
- No. partial (Mus musculus [34]): 4
- No. partial (Mus musculus [35]): 5
- No. partial (Mus musculus [36]): 4
- alkaline phosphatase activity (Mus musculus [37]): 134 U l-1
- alkaline phosphatase activity (Mus musculus [38]): 89 U l-1
- Weight (Mus musculus [39]): 88 mg
- No. total (Mus musculus [40]): 0
- alkaline phosphatase activity (Mus musculus [41]): 144 U l-1
- Weight (Mus musculus [42]): 68 mg
- No. total (Mus musculus [43]): 6
- No. total (Mus musculus [44]): 1
- Platelets x10e-3 (Mus musculus [45]): 689 µL⁻¹
- Platelets x10e-3 (Mus musculus [46]): 1190 µL⁻¹
- alkaline phosphatase activity (Mus musculus [47]): 123 U l-1
- WBC x10e-3 (Mus musculus [48]): 5.6 µL⁻¹
- WBC x10e-3 (Mus musculus [49]): 4.5 µL⁻¹
- WBC x10e-3 (Mus musculus [50]): 1.9 µL⁻¹
- WBC x10e-3 (Mus musculus [51]): 2.5 µL⁻¹
- Weight change (Mus musculus [52]): 4%
- RBC x 10e 3 (Mus musculus [53]): 7.7 µL⁻¹
